# How the values were obtained:
# Protein sequences, listed by entry. Tags and fused reporters are not part of them. Lines headed by an entry give the natural chain unless they say otherwise; changes in a name come on top.
# UniProt P41146: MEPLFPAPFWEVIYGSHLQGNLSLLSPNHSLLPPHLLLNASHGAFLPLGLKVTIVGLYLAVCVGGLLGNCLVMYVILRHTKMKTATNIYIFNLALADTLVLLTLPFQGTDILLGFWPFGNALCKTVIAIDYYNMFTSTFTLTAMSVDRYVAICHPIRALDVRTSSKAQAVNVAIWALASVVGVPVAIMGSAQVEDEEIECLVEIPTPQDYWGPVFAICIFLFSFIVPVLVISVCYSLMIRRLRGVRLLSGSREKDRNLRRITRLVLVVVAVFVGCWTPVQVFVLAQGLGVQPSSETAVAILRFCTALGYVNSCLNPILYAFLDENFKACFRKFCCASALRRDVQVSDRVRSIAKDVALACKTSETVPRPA
# UniProt P35372, whole entry, looked up: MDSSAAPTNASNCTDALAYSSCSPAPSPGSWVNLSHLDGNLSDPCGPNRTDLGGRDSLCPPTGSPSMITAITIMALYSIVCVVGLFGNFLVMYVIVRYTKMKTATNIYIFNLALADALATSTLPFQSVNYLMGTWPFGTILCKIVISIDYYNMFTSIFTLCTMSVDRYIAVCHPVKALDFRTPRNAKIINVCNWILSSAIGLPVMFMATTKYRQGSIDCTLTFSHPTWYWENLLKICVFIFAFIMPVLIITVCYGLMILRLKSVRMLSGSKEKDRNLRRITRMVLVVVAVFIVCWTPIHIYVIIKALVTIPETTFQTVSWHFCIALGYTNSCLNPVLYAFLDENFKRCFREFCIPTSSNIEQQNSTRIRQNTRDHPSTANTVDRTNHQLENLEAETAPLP
# Nociceptin receptor = Nociceptin receptor (Homo sapiens, UniProt P41146); test: Human Nociceptin/Orphanin FQ Peptide (hNOP) Receptor Binding Assay: The hNOP receptor binding assay was performed as homogeneous SPA-assay (scintillation proximity assay) using the assay buffer 50 mM TRIS-HCl. 10 mM MgCl2. 1 mM EDTA (pH 7.4). The final assay volume (250 μl/well) included 0.5 nM of [leucyl-3H]nociceptin as ligand (PerkinElmer Life Sciences. Inc. Boston. Mass. USA). and either test
# Mu-type opioid receptor = Mu-type opioid receptor (Homo sapiens, UniProt P35372); test: Human Mu-Opioid Peptide (hMOP) Receptor Binding Assay: The hMOP receptor binding assay was performed as homogeneous SPA-assay (scintillation proximity assay) using the assay buffer 50 mM TRIS-HCl (pH 7.4) supplemented with […] bovine serum albumin (Sigma-Aldrich Co. St. Louis. Mo.). The final assay volume (250 l/well) included 1 nM of [N-allyl-2.3-3H]naloxone as ligand (PerkinElmer Life Sc
structure (smiles),measurement,setting,value
COc1cc(C)c(N2C[C@]3(CC[C@](c4ccccc4)(N(C)C)CC3)NC2=O)cn1,Ki,Nociceptin receptor,19 nM
same,Ki,Mu-type opioid receptor,4020 nM
CN(C)[C@]1(c2ccccc2)CC[C@]2(CC1)CN(c1ncc(F)cn1)C(=O)N2,Ki,Nociceptin receptor,145 nM
same,Ki,Mu-type opioid receptor,2490 nM
CN(CCO)c1ncc(N2C[C@]3(CC[C@](c4cccs4)(N(C)C)CC3)NC2=O)cn1,Ki,Nociceptin receptor,14 nM
same,Ki,Mu-type opioid receptor,1510 nM
COCCCCN1C(=O)N(c2cnc(C#N)nc2)C[C@]12CC[C@](c1cccc(F)c1)(N(C)C)CC2,Ki,Nociceptin receptor,13 nM
same,Ki,Mu-type opioid receptor,380 nM
COC(=O)c1ccccc1N1C[C@]2(CC[C@](c3ccccc3)(N(C)C)CC2)NC1=O,Ki,Nociceptin receptor,140 nM
same,Ki,Mu-type opioid receptor,4270 nM
CN(C)[C@]1(c2ccccc2)CC[C@]2(CC1)CN(c1cnccc1CS(C)(=O)=O)C(=O)N2,Ki,Nociceptin receptor,15 nM
same,Ki,Mu-type opioid receptor,3460 nM
CCCN1C(=O)N(c2cnc(C#N)nc2)C[C@]12CC[C@](c1ccccc1)(N(C)C)CC2,Ki,Nociceptin receptor,5.2 nM
same,Ki,Mu-type opioid receptor,102 nM
CN(C)[C@]1(c2ccccc2)CC[C@]2(CC1)CN(c1cnc(N3CCOCC3)c(C#N)c1)C(=O)N2,Ki,Nociceptin receptor,8 nM
same,Ki,Mu-type opioid receptor,3980 nM
CCN(C)[C@]1(c2ccccc2)CC[C@]2(CC1)CN(c1cnc(C#N)nc1)C(=O)N2CC1(C#N)CCC1,Ki,Nociceptin receptor,11.4 nM
same,Ki,Mu-type opioid receptor,320 nM
CN(C)[C@]1(c2cccs2)CC[C@]2(CC1)CN(c1cnc(C(F)(F)F)nc1)C(=O)N2,Ki,Nociceptin receptor,18 nM
same,Ki,Mu-type opioid receptor,3750 nM
CN(C)[C@]1(c2ccccc2)CC[C@]2(CC1)CN(c1cnccn1)C(=O)N2,Ki,Nociceptin receptor,120 nM
same,Ki,Mu-type opioid receptor,2420 nM
CN(C)[C@]1(c2ccccc2)CC[C@]2(CC1)CN(c1cccc(S(C)(=O)=O)c1)C(=O)N2,Ki,Nociceptin receptor,145 nM
same,Ki,Mu-type opioid receptor,130 nM
CN(C)[C@]1(c2ccccc2)CC[C@]2(CC1)CN(c1ncc(C#N)cc1F)C(=O)N2,Ki,Nociceptin receptor,66 nM
same,Ki,Mu-type opioid receptor,3520 nM
Cc1noc(C)c1-c1ncc(N2C[C@]3(CC[C@](c4ccccc4)(N(C)C)CC3)NC2=O)cn1,Ki,Nociceptin receptor,13 nM
same,Ki,Mu-type opioid receptor,3740 nM
CN(C)[C@]1(c2ccccc2)CC[C@]2(CC1)CN(c1ccc(C(N)=O)cc1F)C(=O)N2,Ki,Nociceptin receptor,30 nM
same,Ki,Mu-type opioid receptor,880 nM
CN(C)[C@]1(c2ccccc2)CC[C@]2(CC1)CN(c1ccccc1CS(C)(=O)=O)C(=O)N2,Ki,Nociceptin receptor,27 nM
same,Ki,Mu-type opioid receptor,3320 nM
CN[C@]1(c2ccccc2)CC[C@]2(CC1)CN(c1cnc(OC)cn1)C(=O)N2CC1CCC1,Ki,Nociceptin receptor,5 nM
same,Ki,Mu-type opioid receptor,136 nM
CN(C)[C@]1(c2ccccc2)CC[C@]2(CC1)CN(c1ccc(N3CCOCC3)nc1)C(=O)N2,Ki,Nociceptin receptor,15 nM
same,Ki,Mu-type opioid receptor,3950 nM
CN(C)[C@]1(c2ccccc2)CC[C@]2(CC1)CN(c1ccc(C#N)cc1)C(=O)N2CC1CCC1,Ki,Nociceptin receptor,3.2 nM
same,Ki,Mu-type opioid receptor,325 nM
CN(CCO)c1ncc(N2C[C@]3(CC[C@](c4ccccc4)(N(C)C)CC3)NC2=O)cn1,Ki,Nociceptin receptor,13 nM
same,Ki,Mu-type opioid receptor,2520 nM
Cc1ccc(N2C[C@]3(CC[C@](c4ccccc4)(N(C)C)CC3)NC2=O)cc1,Ki,Nociceptin receptor,25 nM
same,Ki,Mu-type opioid receptor,1060 nM
CN(C)[C@]1(c2ccccc2)CC[C@]2(CC1)CN(c1ccc(C(F)(F)F)cn1)C(=O)N2,Ki,Nociceptin receptor,25 nM
same,Ki,Mu-type opioid receptor,3210 nM
CN(C)[C@]1(c2ccccc2)CC[C@]2(CC1)CN(c1cncc(C#N)c1)C(=O)N2,Ki,Nociceptin receptor,68 nM
same,Ki,Mu-type opioid receptor,1230 nM
CCN[C@]1(c2ccccc2)CC[C@]2(CC1)CN(c1ccc(C#N)cc1OC)C(=O)N2CC1(O)CCC1,Ki,Nociceptin receptor,245 nM
same,Ki,Mu-type opioid receptor,460 nM
CN(C)[C@]1(c2ccccc2)CC[C@]2(CC1)CN(c1cnc(N3CCCC3)nc1)C(=O)N2,Ki,Nociceptin receptor,15 nM
same,Ki,Mu-type opioid receptor,2010 nM
CN(C)[C@]1(c2ccccc2)CC[C@]2(CC1)CN(c1ccc(C#N)cc1)C(=O)N2,Ki,Nociceptin receptor,115 nM
same,Ki,Mu-type opioid receptor,4170 nM
COCCN1C(=O)N(c2cnc(C#N)cn2)C[C@]12CC[C@](c1ccccc1)(N(C)C)CC2,Ki,Nociceptin receptor,19.5 nM
same,Ki,Mu-type opioid receptor,515 nM
Cc1ncc(N2C[C@]3(CC[C@](c4ccccc4)(N(C)C)CC3)N(Cc3ccccn3)C2=O)cn1,Ki,Nociceptin receptor,45 nM
same,Ki,Mu-type opioid receptor,180 nM
CN(C)[C@]1(c2ccccc2)CC[C@]2(CC1)CN(c1cncc3ccccc13)C(=O)N2,Ki,Nociceptin receptor,22 nM
same,Ki,Mu-type opioid receptor,565 nM
CN(C)[C@]1(c2ccccc2)CC[C@]2(CC1)CN(c1ccc(C(F)(F)F)cc1)C(=O)N2,Ki,Nociceptin receptor,57 nM
same,Ki,Mu-type opioid receptor,3470 nM
CN(C)[C@]1(c2ccccc2)CC[C@]2(CC1)CN(c1ccc3nc(N4CCOCC4)ncc3c1)C(=O)N2,Ki,Nociceptin receptor,22 nM
same,Ki,Mu-type opioid receptor,980 nM
Cc1cc(-c2ccncc2)ncc1N1C[C@]2(CC[C@](c3ccccc3)(N(C)C)CC2)NC1=O,Ki,Nociceptin receptor,8 nM
same,Ki,Mu-type opioid receptor,4270 nM
CN[C@]1(c2ccccc2)CC[C@]2(CC1)CN(c1cnc(C#N)cc1C)C(=O)N2CC1CCC1,Ki,Nociceptin receptor,4.6 nM
same,Ki,Mu-type opioid receptor,300 nM
CN(C)C(=O)CN1C(=O)N(c2ccccc2)C[C@]12CC[C@](c1ccccc1)(N(C)C)CC2,Ki,Nociceptin receptor,160 nM
same,Ki,Mu-type opioid receptor,355 nM
CN(C)[C@]1(c2ccccc2)CC[C@]2(CC1)CN(c1ccc3c(c1)OCO3)C(=O)N2,Ki,Nociceptin receptor,15 nM
same,Ki,Mu-type opioid receptor,1240 nM
CN[C@]1(c2ccccc2)CC[C@]2(CC1)CN(c1cncnc1)C(=O)N2CC1(O)CCC1,Ki,Nociceptin receptor,150 nM
same,Ki,Mu-type opioid receptor,240 nM
CN(C)[C@]1(c2ccccc2)CC[C@]2(CC1)CN(c1nnc(C(F)(F)F)s1)C(=O)N2,Ki,Nociceptin receptor,14 nM
same,Ki,Mu-type opioid receptor,4990 nM
CN(C)[C@]1(c2ccccc2)CC[C@]2(CC1)CN(c1cccc(C#N)c1)C(=O)N2CC1(O)CCC1,Ki,Nociceptin receptor,4.7 nM
same,Ki,Mu-type opioid receptor,54.5 nM
CC(=O)Nc1ncc(N2C[C@]3(CC[C@](c4ccccc4)(N(C)C)CC3)NC2=O)cn1,Ki,Nociceptin receptor,27 nM
same,Ki,Mu-type opioid receptor,5530 nM
CN[C@]1(c2cccc(F)c2)CC[C@]2(CC1)CN(c1cc(C(F)(F)F)nn1C)C(=O)N2CC1CC1,Ki,Nociceptin receptor,24 nM
same,Ki,Mu-type opioid receptor,805 nM
CCN[C@]1(c2ccccc2)CC[C@]2(CC1)CN(c1ccccc1C#N)C(=O)N2CC1(O)CCC1,Ki,Nociceptin receptor,265 nM
same,Ki,Mu-type opioid receptor,915 nM
CN(C)[C@]1(c2ccccc2)CC[C@]2(CC1)CN(c1ccc(-c3ccccn3)s1)C(=O)N2CC1CCC1,Ki,Nociceptin receptor,12 nM
same,Ki,Mu-type opioid receptor,117 nM
CN[C@]1(c2ccccc2)CC[C@]2(CC1)CN(c1ccccc1CS(C)(=O)=O)C(=O)N2CC1CC1,Ki,Nociceptin receptor,84 nM
same,Ki,Mu-type opioid receptor,430 nM
COc1ccc(N2C[C@]3(CC[C@](c4ccccc4)(N(C)C)CC3)NC2=O)cn1,Ki,Nociceptin receptor,20 nM
same,Ki,Mu-type opioid receptor,2470 nM
CN(C)[C@]1(c2ccccc2)CC[C@]2(CC1)CN(c1ccccc1C#N)C(=O)N2CC1(O)CCC1,Ki,Nociceptin receptor,8.2 nM
same,Ki,Mu-type opioid receptor,170 nM
CN(C)[C@]1(c2ccccc2)CC[C@]2(CC1)CN(c1cnc(-c3ccncc3)nc1)C(=O)N2,Ki,Nociceptin receptor,5 nM
same,Ki,Mu-type opioid receptor,4230 nM
CN[C@]1(c2ccccc2)CC[C@]2(CC1)CN(c1cnc(C(F)(F)F)nc1)C(=O)N2CC1COC1,Ki,Nociceptin receptor,305 nM
same,Ki,Mu-type opioid receptor,31 nM
CN(C)[C@]1(c2cccs2)CC[C@@]2(CC1)CN(c1cnc(C(F)(F)F)nc1)C(=O)N2,Ki,Nociceptin receptor,11 nM
same,Ki,Mu-type opioid receptor,5 nM
CN[C@]1(c2ccccc2)CC[C@]2(CC1)CN(c1cnc(C(F)(F)F)nc1)C(=O)N2CC1(O)CCC1,Ki,Nociceptin receptor,23 nM
same,Ki,Mu-type opioid receptor,150 nM
CN(C)[C@]1(c2ccccc2)CC[C@]2(CC1)CN(c1ccc(N3CCNCC3)nc1)C(=O)N2,Ki,Nociceptin receptor,5 nM
same,Ki,Mu-type opioid receptor,675 nM
CN(C)[C@]1(c2ccccc2)CC[C@]2(CC1)CN(c1cnc3[nH]ccc3c1)C(=O)N2,Ki,Nociceptin receptor,12 nM
same,Ki,Mu-type opioid receptor,1150 nM
CN(C)[C@]1(c2ccccc2)CC[C@]2(CC1)CN(c1ccnc3[nH]ccc13)C(=O)N2,Ki,Nociceptin receptor,31 nM
same,Ki,Mu-type opioid receptor,1020 nM
CN(C)[C@]1(c2ccccc2)CC[C@]2(CC1)CN(c1ccc(C#N)cn1)C(=O)N2,Ki,Nociceptin receptor,23 nM
same,Ki,Mu-type opioid receptor,1830 nM

# From ChEMBL document CHEMBL5728057, “3-((hetero-)aryl)-8-amino-2-oxo-1,3-diaza-spiro-[4.5]-decane derivatives” (2020)
